In general, Kd refers to the free concentration of one partner at which half of the binding sites on the other are occupied at equilibrium, for simple one-to-one binding. A low value points to a tighter complex.

One molecule from patent publication US8957029 (MAX PLANCK GESELLSCHAFT ZUR FORDERUNG DER WISSENSCHAFTEN E V, dated 2015) can be followed below.

The target in experiment [1] is pyrene-labelled actin (UniProt P68135 3-377). The experiment in a line: fluorescence quenching of pyrene-labelled G-actin as a function of peptide concentration, hyperbolic fit.
The target of experiment [2] is rabbit muscle F-actin (rabbit, UniProt P68135 3-377). The experiment in a line: F-actin co-sedimentation, peptide fluorescence in pellet over total, hyperbolic fit. Here is the method:
Polymerization of actin was induced by addition of 0.1 volume 10×KMEI buffer (50 mM KCl, 1 mM MgCl_2, 1 mM EGTA, 10 mM imidazole HCl, pH 7.0) and incubation for >1 h at room temperature (RT). 44 µM of F— Lifeact was incubated 30 min with F-actin and then spun 30 min at 350,000×g at room temperature. The supernatant was removed and the pellet resuspended in 100 µl of 1×KMEI buffer. The amount of peptide was measured in a Cary Eclipse Fluorescence Spectrophotometer with excitation/emission set for FITC at 495 nm/520 nm. The bound/total ratio was calculated as the signal from the pellet divided by the total signal. The K_d was obtained by fitting to a hyperbolic curve.
An effective probe for actin should have no or very little influence on the dynamics of actin polymerization and depolymerization. We therefore tested the properties of F-Lifeact in in vitro assays for actin dynamics. To determine the affinity of Lifeact to filamentous actin we performed an F-actin co-sedimentation assay. The amounts of peptide in the pellet and in the supernatant were measured spectroscopically. F-Lifeact bound to muscle actin with a dissociation constant (K_d) of 3.1±0.7 µM (mean±95% CI, n=3, FIG. 2a). The K_d for non-muscle actin was 5.4±2.6 µM. […] We also determined whether F-Lifeact binds to G-actin by monitoring fluorescence quenching of pyrene-labelled actin as a function of peptide concentration.

B1: F-Lifeact (chemically synthesized 17aa Lifeact peptide tagged with fluorescein at its N-terminus) (peptide)
peptide: MGVADLIKKFESISKEE
modifications: fluorescein (FITC) at the N-terminus
notes: also called fluorescein conjugated Lifeact; F-Lifeact peptide
As for B1, the Kd in experiment [1] amounted to 3 µM; in experiment [2], 3.1 µM.
